Assay [1] relates to B44 supertype (B*1801, B*4001, B*4002, B*4402, B*4403, B*4501). Briefly: B44 supertype cross-binding (degeneracy, alleles bound). On the set-up: species or system human. Particulars: number of the six B44 supertype alleles bound.
The target in another assay is B*1801 (Homo sapiens, UniProt P01889, A329T/A93T/A95T/C349S/D201E/D54G/D98Y/E176V/E187T/E204Q/E69T/K202T/Q94N/R155S/R180L/S121R/V306I/Y140S/Y195H/Y33H/Y91S). Briefly: B44 supertype peptide binding, B*1801. As to conditions: CEA-derived B44 peptides; binding affinity, unit inferred.
The target in a further assay is B*4501 (Homo sapiens, UniProt P01889, A329T/A65T/A93T/A95T/C349S/D138N/D201E/D98Y/E176V/E187L/E204Q/E69K/H137Y/K202T/L119W/N87E/Q56L/Q94N/R155S/R180D/S121R/S35A/S48T/V127L/V306I/V36M/W191S/Y140L/Y33H/Y91S). Briefly: B44 supertype peptide binding, B*4501. Particulars: CEA-derived B44 peptides; binding affinity, unit inferred; read-out: B* 4501.
Another assay addresses B*4402 (Homo sapiens, UniProt P01889, A223V/A65T/A93T/A95T/D201E/D98Y/E176V/E187L/E204Q/E69K/G107R/H137Y/K202T/L105A/L119I/N104T/N87E/Q56L/Q94N/R106L/R155S/R180D/S101N/S121R/S35A/S48T/T118I/V36M/W191S/Y140D/Y91S). Briefly: B44 supertype peptide binding, B*4402. As to conditions: CEA-derived B44 peptides; binding affinity, unit inferred; read-out: B* 4402.
The target of another assay is B*4001(B60) (Homo sapiens, UniProt P01889, A65T/A93T/A95T/D138N/D98Y/E176V/E69K/N87E/Q56L/Q94N/R180L/S121R/S35A/S48T/T167S/V36M/W171L/Y33H/Y91S). Briefly: B44 supertype peptide binding, B*4001. Particulars: CEA-derived B44 peptides; binding affinity, unit inferred; read-out: B* 4001.
In the next assay the target is B*4403 (Homo sapiens, UniProt P01889, A223V/A65T/A93T/A95T/D201E/D98Y/E176V/E187L/E204Q/E69K/G107R/H137Y/K202T/L105A/L119I/N104T/N87E/Q56L/Q94N/R106L/R155S/R180L/S101N/S121R/S35A/S48T/T118I/V36M/W191S/Y140D/Y91S). Put plainly: B44 supertype peptide binding, B*4403. As to conditions: CEA-derived B44 peptides; binding affinity, unit inferred; read-out: B* 4403.
For a further assay, the target named is B*4002 (B61) (Homo sapiens, UniProt P01889, A65T/A93T/A95T/D138N/D201E/D98Y/E176V/E204Q/E69K/K202T/N87E/Q56L/Q94N/R180L/S48T/Y33H/Y91S). Put plainly: B44 supertype peptide binding, B*4002. Particulars: CEA-derived B44 peptides; binding affinity, unit inferred; read-out: B* 4002.

Molecules are shown by their SMILES. Some results are limits rather than exact numbers.

Turning to `CC(C)C[C@H](NC(=O)[C@H](CC(N)=O)NC(=O)[C@H](Cc1c[nH]cn1)NC(=O)[C@@H](NC(=O)[C@H](CC(C)C)NC(=O)[C@H](CC(C)C)NC(=O)[C@H](CC(C)C)NC(=O)[C@@H](NC(=O)[C@H](CCC(=O)O)NC(=O)[C@@H](N)CCCCN)C(C)C)C(C)C)C(=O)O` [compound 376], the Degeneracy in assay [1] is given as 4. The molecule also yielded an IC50 at B*1801 of 0.893 µM.

`CC[C@H](C)[C@H](NC(=O)[C@H](CCC(=O)O)NC(=O)[C@@H](N)CCCNC(=N)N)C(=O)N[C@H](C(=O)N[C@@H](Cc1ccc(O)cc1)C(=O)N1CCC[C@H]1C(=O)N[C@@H](CC(N)=O)C(=O)N[C@@H](C)C(=O)N[C@@H](CO)C(=O)N[C@@H](CC(C)C)C(=O)O)[C@@H](C)CC` [compound 377]: in assay [1], the Degeneracy came out at 4. Besides, the IC50 at B*4501 turned out to be 0.954 µM; on B*1801, 4.34 µM.

`CC[C@H](C)[C@H](NC(=O)[C@@H](NC(=O)[C@H](CCC(N)=O)NC(=O)[C@H](CCCNC(=N)N)NC(=O)[C@H](CC(N)=O)NC(=O)CNC(=O)[C@H](CC(=O)O)NC(=O)[C@@H](NC(=O)[C@H](CCCNC(=N)N)NC(=O)[C@H](CCC(=O)O)NC(=O)CN)C(C)C)[C@@H](C)CC)C(=O)O` [compound 382] came in with a Degeneracy in assay [1] of 3. For the same molecule, the IC50 at B*4402 was 0.871 µM; at B*4501, greater than 10 µM; on B*1801, 0.764 µM.

As for `C[C@H](NC(=O)[C@H](CC(=O)O)NC(=O)[C@H](CCC(N)=O)NC(=O)[C@@H](NC(=O)[C@H](CCC(=O)O)NC(=O)[C@@H]1CCCN1C(=O)[C@H](CCC(=O)O)NC(=O)[C@@H](N)CS)[C@@H](C)O)C(=O)N[C@H](C(=O)O)[C@@H](C)O` [compound 384], the IC50 was found to be 3.65 µM at B*4001(B60) and 4.01 µM on B*1801. Moreover, the Degeneracy in assay [1] was 3.

Take `CC(C)C[C@H](NC(=O)[C@H](CC(N)=O)NC(=O)[C@H](CCC(=O)O)NC(=O)CN)C(=O)N[C@@H](CC(N)=O)C(=O)N[C@@H](CC(C)C)C(=O)N[C@@H](CO)C(=O)N[C@@H](CS)C(=O)N[C@@H](Cc1c[nH]cn1)C(=O)N[C@@H](C)C(=O)O` [compound 385]: the Degeneracy in assay [1] came to 3. The results for the IC50 on B*4402, on B*4501 and at B*1801 were 8.61 µM, 0.271 µM and 14.4 µM, respectively.

As to `CC(C)C[C@H](NC(=O)[C@H](CC(N)=O)NC(=O)[C@H](CCC(=O)O)NC(=O)CN)C(=O)N[C@@H](CC(N)=O)C(=O)N[C@@H](CC(C)C)C(=O)N[C@@H](CO)C(=O)N[C@@H](CS)C(=O)N[C@@H](Cc1c[nH]cn1)C(=O)N[C@@H](C)C(=O)N[C@@H](C)C(=O)O` [compound 386], the figures for the IC50 at B*4001(B60), at B*4402 and on B*1801 were 4.56 µM, 1.91 µM and 7.84 µM, respectively. The molecule further returned a Degeneracy in assay [1] of 3.

`CC[C@H](C)[C@H](NC(=O)[C@H](CCC(=O)O)NC(=O)[C@@H]1CCCN1C(=O)[C@H](CCC(=O)O)NC(=O)[C@@H](N)CS)C(=O)N[C@@H](CCC(N)=O)C(=O)N[C@@H](CC(N)=O)C(=O)N[C@H](C(=O)N[C@H](C(=O)N[C@@H](Cc1ccc(O)cc1)C(=O)N[C@@H](CC(C)C)C(=O)O)[C@@H](C)O)[C@@H](C)O` [compound 388] registered a Degeneracy in assay [1] of 3. At B*4403, the IC50 stood at 0.06 µM.

Consider `CC[C@H](C)[C@H](NC(=O)[C@H](CCC(=O)O)NC(=O)[C@@H]1CCCN1)C(=O)N[C@@H](CCC(N)=O)C(=O)N[C@@H](CC(N)=O)C(=O)N[C@H](C(=O)N[C@H](C(=O)N[C@@H](Cc1ccc(O)cc1)C(=O)N[C@@H](CC(C)C)C(=O)N[C@@H](Cc1c[nH]c2ccccc12)C(=O)N[C@@H](Cc1c[nH]c2ccccc12)C(=O)N[C@H](C(=O)O)C(C)C)[C@@H](C)O)[C@@H](C)O` [compound 390], for which the values for the IC50 at B*4002 (B61), at B*4001(B60) and on B*4402 were 0.291 µM, 0.511 µM and 0.167 µM, respectively. This molecule returned a Degeneracy in assay [1] of 3.

For the molecule `CC(C)C[C@H](NC(=O)[C@H](Cc1ccc(O)cc1)NC(=O)[C@@H](NC(=O)[C@@H](NC(=O)[C@H](CC(N)=O)NC(=O)[C@H](CCC(N)=O)NC(=O)[C@H](C)NC(=O)[C@H](CCC(=O)O)NC(=O)[C@@H]1CCCN1)[C@@H](C)O)[C@@H](C)O)C(=O)N[C@@H](Cc1c[nH]c2ccccc12)C(=O)N[C@@H](Cc1c[nH]c2ccccc12)C(=O)O` [compound 393], the IC50 at B*4002 (B61) was 3.09 µM. The molecule further had a Degeneracy in assay [1] of 3.

Consider `CC(C)C[C@H](NC(=O)CNC(=O)[C@H](CO)NC(=O)[C@H](CC(N)=O)NC(=O)[C@H](CCCCN)NC(=O)[C@H](CCC(=O)O)NC(=O)[C@@H](N)[C@@H](C)O)C(=O)N[C@@H](Cc1ccc(O)cc1)C(=O)O` [compound 411], for which the IC50 amounted to 7.12 µM on B*4002 (B61); 9.85 µM at B*4001(B60); 0.605 µM on B*4403; 1.87 µM on B*4402; 10.2 µM on B*4501. The molecule further had a Degeneracy in assay [1] of 1.

On to `CC(C)C[C@H](NC(=O)[C@H](Cc1ccc(O)cc1)NC(=O)[C@@H](NC(=O)[C@H](C)NC(=O)[C@H](CC(=O)O)NC(=O)[C@H](CCC(N)=O)NC(=O)[C@@H](NC(=O)[C@H](CCC(=O)O)NC(=O)[C@@H]1CCCN1)[C@@H](C)O)[C@@H](C)O)C(=O)N[C@@H](Cc1c[nH]c2ccccc12)C(=O)N[C@@H](Cc1c[nH]c2ccccc12)C(=O)O` [compound 423], for which the IC50 is greater than 10 µM on B*4002 (B61); greater than 10 µM at B*4001(B60); 2.82 µM at B*4402; 11.6 µM at B*4501; 5.31 µM at B*1801. Further, the Degeneracy in assay [1] amounted to 0.

Regarding `CC(C)[C@H](NC(=O)[C@@H]1CCCN1C(=O)[C@H](CC(N)=O)NC(=O)[C@H](CCC(N)=O)NC(=O)[C@@H](NC(=O)[C@H](CCC(=O)O)NC(=O)[C@@H](N)CS)[C@@H](C)O)C(=O)O` [compound 424], the IC50 at B*4002 (B61) is 7.45 µM; at B*4001(B60) it was 18.8 µM; at B*4403, 0.819 µM; on B*4402, 13.5 µM; on B*4501, greater than 10 µM. Also, the Degeneracy in assay [1] is listed as 0.

As to `CC[C@H](C)[C@H](NC(=O)[C@H](Cc1ccccc1)NC(=O)[C@@H]1CCCN1C(=O)[C@H](CCCCN)NC(=O)[C@@H]1CCCN1C(=O)[C@@H]1CCCN1C(=O)[C@H](CCC(=O)O)NC(=O)[C@H](C)N)C(=O)O` [compound 425], the IC50 on B*4002 (B61) was greater than 10 µM; at B*4001(B60), greater than 10 µM; on B*4403, 0.904 µM; at B*4402, 13.7 µM; on B*4501 it was greater than 10 µM. The same molecule came in with a Degeneracy in assay [1] of 0.

Consider `C[C@H](NC(=O)[C@H](CCC(=O)O)NC(=O)[C@@H]1CCCN1C(=O)[C@H](CCC(=O)O)NC(=O)[C@@H](N)CS)C(=O)N[C@@H](CCC(N)=O)C(=O)N[C@@H](CC(N)=O)C(=O)N[C@H](C(=O)N[C@H](C(=O)O)[C@@H](C)O)[C@@H](C)O` [compound 428], for which the IC50 on B*4002 (B61) is greater than 10 µM; at B*4001(B60) it was 11.1 µM; at B*4403 it was 1.21 µM; at B*4402, greater than 10 µM; at B*1801, 15.6 µM. The molecule further had a Degeneracy in assay [1] of 0.

Turning to `CC(C)C[C@H](NC(=O)[C@H](Cc1ccc(O)cc1)NC(=O)[C@@H](NC(=O)[C@@H](NC(=O)[C@H](CC(N)=O)NC(=O)[C@H](CCC(N)=O)NC(=O)[C@H](C)NC(=O)[C@H](CCC(=O)O)NC(=O)[C@@H]1CCCN1)[C@@H](C)O)[C@@H](C)O)C(=O)O` [compound 429], the IC50 at B*4002 (B61) is 9.28 µM; on B*4001(B60), 3.09 µM; on B*4403 it was 1.84 µM; at B*4402 it was greater than 10 µM; at B*4501, greater than 10 µM. The molecule also yielded a Degeneracy in assay [1] of 0.

The record behind these values is EP1903056A2, “HLA-A1, -A2 -A3, -A24, -B7, and -B44 tumor associated antigen peptides and compositions” (priority 2002, dated 2004).
